The term IC50 denotes the point on the concentration scale where inhibition reaches its midpoint. Lower therefore signals inhibition by little substance.

Protein sequences, listed by entry. Tags and fused reporters are not part of them. Lines headed by an entry give the natural chain unless they say otherwise; changes in a name come on top.
UniProt Q9GZT9: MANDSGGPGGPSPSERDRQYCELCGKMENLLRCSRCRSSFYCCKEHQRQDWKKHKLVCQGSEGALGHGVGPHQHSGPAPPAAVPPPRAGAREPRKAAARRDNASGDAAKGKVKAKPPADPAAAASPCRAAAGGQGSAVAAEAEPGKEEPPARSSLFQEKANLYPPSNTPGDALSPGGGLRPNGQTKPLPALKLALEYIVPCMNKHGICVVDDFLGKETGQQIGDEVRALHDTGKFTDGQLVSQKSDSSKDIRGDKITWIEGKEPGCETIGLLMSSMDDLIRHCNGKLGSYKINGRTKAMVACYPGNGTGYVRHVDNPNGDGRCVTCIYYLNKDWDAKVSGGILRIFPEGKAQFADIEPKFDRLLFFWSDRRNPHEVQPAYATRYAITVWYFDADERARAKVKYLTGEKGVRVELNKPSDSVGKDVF

The values below come from ChEMBL document CHEMBL3861947 (Medchemcomm, 2016).

The target of the test is Egl nine homolog 1 (Homo sapiens, UniProt Q9GZT9).

`O=C(O)CNC(=O)c1ncc(-c2cccc(Cl)c2)cc1O` [VADADUSTAT] returned a 50% inhibitory concentration (IC50) of 390 nM.
